Reference: patent publication US11186582B2, “Substituted [1,2,4]triazolo[1,5-a]pyrimidin-7-yl compounds as PDE2 inhibitors” (DART NEUROSCIENCE (CAYMAN) LTD., priority 2014, dated 2021)

Amino acid sequences for entries named in this document (tags omitted). Residues count along the entry.
UniProt O00408, 2-941: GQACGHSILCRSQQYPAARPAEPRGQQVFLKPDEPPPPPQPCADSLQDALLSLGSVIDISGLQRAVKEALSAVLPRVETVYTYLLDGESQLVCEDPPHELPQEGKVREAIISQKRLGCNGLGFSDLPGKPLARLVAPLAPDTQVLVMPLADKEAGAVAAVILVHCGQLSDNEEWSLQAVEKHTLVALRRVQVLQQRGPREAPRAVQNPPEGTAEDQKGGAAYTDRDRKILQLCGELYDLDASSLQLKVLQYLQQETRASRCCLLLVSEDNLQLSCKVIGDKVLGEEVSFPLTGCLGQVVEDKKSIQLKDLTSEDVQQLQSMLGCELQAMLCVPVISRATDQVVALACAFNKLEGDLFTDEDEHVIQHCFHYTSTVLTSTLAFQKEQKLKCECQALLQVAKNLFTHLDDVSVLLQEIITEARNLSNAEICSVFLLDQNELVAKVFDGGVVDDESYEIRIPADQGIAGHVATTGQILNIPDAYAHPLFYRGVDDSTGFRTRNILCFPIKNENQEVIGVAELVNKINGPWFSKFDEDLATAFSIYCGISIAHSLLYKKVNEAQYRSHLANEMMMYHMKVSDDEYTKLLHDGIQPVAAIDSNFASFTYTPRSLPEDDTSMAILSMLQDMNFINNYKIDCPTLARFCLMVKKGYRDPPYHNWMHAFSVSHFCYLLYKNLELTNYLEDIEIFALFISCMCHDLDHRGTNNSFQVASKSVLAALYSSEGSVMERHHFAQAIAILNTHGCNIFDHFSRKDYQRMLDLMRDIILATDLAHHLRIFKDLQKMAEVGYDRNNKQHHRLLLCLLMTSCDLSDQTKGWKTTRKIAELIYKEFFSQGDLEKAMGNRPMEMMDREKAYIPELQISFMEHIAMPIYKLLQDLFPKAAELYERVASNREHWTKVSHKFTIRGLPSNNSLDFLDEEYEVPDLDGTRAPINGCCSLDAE

What follows are compounds tested against FLAG-tagged PDE2A1 (amino acids 2-941) (Homo sapiens (Human), UniProt O00408) (assay: IMAP TR-FRET PDE2A phosphodiesterase enzymatic assay). Settings: not given.

Compared with Cc1cc(C2CCCN(Cc3cccc(OC(F)F)c3)C2)n2ncnc2n1 (stereo not drawn) [Example 128, 1-{[3-(Difluoromethoxy)phenyl]methyl}-3-{5-methyl-[1,2,4]triazolo[1,5-a]pyrimidin-7-yl}piperidine], Cc1cc([C@@H]2CCCN(Cc3ccc(Cl)c(F)c3)C2)n2ncnc2n1 [Example 140, (3R)-1-[(4-Chloro-3-fluorophenyl)methyl]-3-{5-methyl-[1,2,4]triazolo[1,5-a]pyrimidin-7-yl}piperidine] is lower in IC50: greater than 10 µM for the first, 0.1 to 1 µM for the second. The second is the more potent here.

Cc1cc(C2CCCN(Cc3ccc(-n4ccnc4)cc3)C2)n2ncnc2n1 (stereo not drawn) [Example 129, 1-{[4-(1H-Imidazol-1-yl)phenyl]methyl}-3-{5-methyl-[1,2,4]triazolo[1,5-a]pyrimidin-7-yl}piperidine] and Cc1cc(C2CCCN(Cc3ccc(-n4cccn4)cc3)C2)n2ncnc2n1 (stereo not drawn) [Example 148, 3-{5-Methyl-[1,2,4]triazolo[1,5-a]pyrimidin-7-yl}-1-{[4-(1H-pyrazol-1-yl)phenyl]methyl}piperidine] fall in the same range of IC50: 0.1 to 1 µM for the first, 0.1 to 1 µM for the second.

Compared with Cc1cc(C2CCCN(Cc3ccc(Cl)cn3)C2)n2ncnc2n1 (stereo not drawn) [Example 130, 5-Chloro-2-[(3-{5-methyl-[1,2,4]triazolo[1,5-a]pyrimidin-7-yl}piperidin-1-yl)methyl]pyridine], Cc1cc(C2CCCN(Cc3ccc(Br)cn3)C2)n2ncnc2n1 (stereo not drawn) [Example 135, 5-bromo-2-[(3-{5-Methyl-[1,2,4]triazolo[1,5-a]pyrimidin-7-yl}piperidin-1-yl)methyl]pyridine] is lower in IC50: 1 to 10 µM for the first, 0.1 to 1 µM for the second.

Cc1cc(C2CCCN(Cc3ccc(Br)cc3F)C2)n2ncnc2n1 (stereo not drawn) [Example 132, 1-[(4-Bromo-2-fluorophenyl)methyl]-3-{5-methyl-[1,2,4]triazolo[1,5-a]pyrimidin-7-yl}piperidine] and Cc1cc(C2CCCN(Cc3cc(Br)ccc3F)C2)n2ncnc2n1 (stereo not drawn) [Example 145, 1-[(5-Bromo-2-fluorophenyl)methyl]-3-{5-methyl-[1,2,4]triazolo[1,5-a]pyrimidin-7-yl}piperidine] fall in the same range of IC50: 0.1 to 1 µM for the first, 0.1 to 1 µM for the second.

First: Cc1cc([C@@H]2CCCN(Cc3ccc(Br)cc3)C2)n2ncnc2n1 [Example 133, (3R)-1-[(4-Bromophenyl)methyl]-3-{5-methyl-[1,2,4]triazolo[1,5-a]pyrimidin-7-yl}piperidine]
Second: Cc1cc(C2CCCN(Cc3ccc(Br)cc3)C2)n2ncnc2n1 (stereo not drawn) [Example 143, 1-[(4-Bromophenyl)methyl]-3-{5-methyl-[1,2,4]triazolo[1,5-a]pyrimidin-7-yl}piperidine]
The IC50 of the first is higher: 1 to 10 µM for the first, 0.1 to 1 µM for the second.

Cc1cc(C2CCCN(Cc3cc(C)c(Br)cn3)C2)n2ncnc2n1 (stereo not drawn) [Example 136, 5-Bromo-4-methyl-2-[(3-{5-methyl-[1,2,4]triazolo[1,5-a]pyrimidin-7-yl}piperidin-1-yl)methyl]pyridine] and Cc1cc(C2CCCN(Cc3ccc(Br)c(C)n3)C2)n2ncnc2n1 (stereo not drawn) [Example 137, 3-Bromo-2-methyl-6-[(3-{5-methyl-[1,2,4]triazolo[1,5-a]pyrimidin-7-yl}piperidin-1-yl)methyl]pyridine] fall in the same range of IC50: 0.1 to 1 µM for the first, 0.1 to 1 µM for the second.

Cc1cc(C2CCCN(Cc3ncc(Br)cn3)C2)n2ncnc2n1 (stereo not drawn) [Example 138, 5-Bromo-2-[(3-{5-methyl-[1,2,4]triazolo[1,5-a]pyrimidin-7-yl}piperidin-1-yl)methyl]pyrimidine] and Cc1cc(C2CCCN(Cc3ccc(Br)cc3Cl)C2)n2ncnc2n1 (stereo not drawn) [Example 152, 1-[(4-Bromo-2-chlorophenyl)methyl]-3-{5-methyl-[1,2,4]triazolo[1,5-a]pyrimidin-7-yl}piperidine] fall in the same range of IC50: 1 to 10 µM for the first, 1 to 10 µM for the second.

Cc1cc(C2CCCN(Cc3ccc4c(c3)CCC4)C2)n2ncnc2n1 (stereo not drawn) [Example 142, 1-(2,3-Dihydro-1H-inden-5-ylmethyl)-3-{5-methyl-[1,2,4]triazolo[1,5-a]pyrimidin-7-yl}piperidine] and Cc1cc(C2CCCN(Cc3ccc(C)c(F)c3)C2)n2ncnc2n1 (stereo not drawn) [Example 161, 1-[(3-Fluoro-4-methylphenyl)methyl]-3-{5-methyl-[1,2,4]triazolo[1,5-a]pyrimidin-7-yl}piperidine] fall in the same range of IC50: 0.1 to 1 µM for the first, 0.1 to 1 µM for the second.

Cc1cc(C2CCCN(Cc3c(F)cc(Br)cc3F)C2)n2ncnc2n1 (stereo not drawn) [Example 144, 1-[(4-Bromo-2,6-difluorophenyl)methyl]-3-{5-methyl-[1,2,4]triazolo[1,5-a]pyrimidin-7-yl}piperidine] and Cc1cc(C2CCCN(Cc3ccc(C)c(F)c3F)C2)n2ncnc2n1 (stereo not drawn) [Example 155, 1-[(2,3-Difluoro-4-methylphenyl)methyl]-3-{5-methyl-[1,2,4]triazolo[1,5-a]pyrimidin-7-yl}piperidine] fall in the same range of IC50: 0.1 to 1 µM for the first, 0.1 to 1 µM for the second.

First: CCn1ccc2ccc(CN3CCCC(c4cc(C)nc5ncnn45)C3)cc21 (stereo not drawn) [Example 146, 1-Ethyl-6-[(3-{5-methyl-[1,2,4]triazolo[1,5-a]pyrimidin-7-yl}piperidin-1-yl)methyl]-1H-indole]
Second: Cc1cc(C2CCCN(Cc3ccc4ccncc4c3)C2)n2ncnc2n1 (stereo not drawn) [Example 154, 7-[(3-{5-Methyl-[1,2,4]triazolo[1,5-a]pyrimidin-7-yl}piperidin-1-yl)methyl]isoquinoline]
The IC50 of the first is higher: 1 to 10 µM for the first, 0.1 to 1 µM for the second.

Cc1cc(C2CCCN(Cc3ccc(-c4nccs4)cc3)C2)n2ncnc2n1 (stereo not drawn) [Example 147, 3-{5-Methyl-[1,2,4]triazolo[1,5-a]pyrimidin-7-yl}-1-{[4-(1,3-thiazol-2-yl)phenyl]methyl}piperidine] and Cc1cc(C2CCCN(Cc3ccc(-c4cccs4)cc3)C2)n2ncnc2n1 (stereo not drawn) [Example 160, 3-{5-Methyl-[1,2,4]triazolo[1,5-a]pyrimidin-7-yl}-1-{[4-(thiophen-2-yl)phenyl]methyl}piperidine] fall in the same range of IC50: 0.1 to 1 µM for the first, 0.1 to 1 µM for the second.

Cc1cc(C2CCCN(Cc3ccc(CC(C)C)cc3)C2)n2ncnc2n1 (stereo not drawn) [Example 149, 3-{5-Methyl-[1,2,4]triazolo[1,5-a]pyrimidin-7-yl}-1-{[4-(2-methylpropyl)phenyl]methyl}piperidine] and Cc1cc(C2CCCN(Cc3ccc(C(C)(C)C)cc3)C2)n2ncnc2n1 (stereo not drawn) [Example 153, 1-[(4-tert-Butylphenyl)methyl]-3-{5-methyl-[1,2,4]triazolo[1,5-a]pyrimidin-7-yl}piperidine] fall in the same range of IC50: 1 to 10 µM for the first, 1 to 10 µM for the second.

Cc1cc(C2CCCN(Cc3ccc(C4CC4)cc3)C2)n2ncnc2n1 (stereo not drawn) [Example 151, 1-[(4-Cyclopropylphenyl)methyl]-3-{5-methyl-[1,2,4]triazolo[1,5-a]pyrimidin-7-yl}piperidine] and Cc1cc(C2CCCN(Cc3ccc(OC(F)(F)F)cc3)C2)n2ncnc2n1 (stereo not drawn) [Example 156, 3-{5-Methyl-[1,2,4]triazolo[1,5-a]pyrimidin-7-yl}-1-{[4-(trifluoromethoxy)phenyl]methyl}piperidine] fall in the same range of IC50: 1 to 10 µM for the first, 1 to 10 µM for the second.

Cc1cc(C2CCCN(Cc3ccccc3OC(F)(F)F)C2)n2ncnc2n1 (stereo not drawn) [Example 157, 3-{5-Methyl-[1,2,4]triazolo[1,5-a]pyrimidin-7-yl}-1-{[2-(trifluoromethoxy)phenyl]methyl}piperidine] and COc1cc(C(F)(F)F)ccc1CN1CCCC(c2cc(C)nc3ncnn23)C1 (stereo not drawn) [Example 158, 1-{[2-Methoxy-4-(trifluoromethyl)phenyl]methyl}-3-{5-methyl-[1,2,4]triazolo[1,5-a]pyrimidin-7-yl}piperidine] fall in the same range of IC50: 1 to 10 µM for the first, 1 to 10 µM for the second.

Cc1cc(C2CCCN(Cc3ccc4cccnc4c3)C2)n2ncnc2n1 (stereo not drawn) [Example 159, 7-[(3-{5-Methyl-[1,2,4]triazolo[1,5-a]pyrimidin-7-yl}piperidin-1-yl)methyl]quinoline] and Cc1cc(C2CCCN(Cc3ccc(Cl)c(Cl)c3)C2)n2ncnc2n1 (stereo not drawn) [Example 166, 1-[(3,4-Dichlorophenyl)methyl]-3-{5-methyl-[1,2,4]triazolo[1,5-a]pyrimidin-7-yl}piperidine] fall in the same range of IC50: 0.1 to 1 µM for the first, 0.1 to 1 µM for the second.

First: Cc1cc(C2CCCN(Cc3ccc(F)cc3Cl)C2)n2ncnc2n1 (stereo not drawn) [Example 162, 1-[(2-Chloro-4-fluorophenyl)methyl]-3-{5-methyl-[1,2,4]triazolo[1,5-a]pyrimidin-7-yl}piperidine]
Second: Cc1cc(C2CCCN(Cc3ccc(Cl)c(C)c3)C2)n2ncnc2n1 (stereo not drawn) [Example 165, 1-[(4-Chloro-3-methylphenyl)methyl]-3-{5-methyl-[1,2,4]triazolo[1,5-a]pyrimidin-7-yl}piperidine]
The IC50 of the first is higher: 1 to 10 µM for the first, 0.1 to 1 µM for the second. The second is the more potent here.

Cc1cc(C2CCCN(Cc3ccc(C(F)(F)F)cc3C)C2)n2ncnc2n1 (stereo not drawn) [Example 163, 1-{[2-Methyl-4-(trifluoromethyl)phenyl]methyl}-3-{5-methyl-[1,2,4]triazolo[1,5-a]pyrimidin-7-yl}piperidine] and Cc1cc(C2CCCN(Cc3ccc(Cl)c(C(F)(F)F)c3)C2)n2ncnc2n1 (stereo not drawn) [Example 164, 1-{[4-Chloro-3-(trifluoromethyl)phenyl]methyl}-3-{5-methyl-[1,2,4]triazolo[1,5-a]pyrimidin-7-yl}piperidine] fall in the same range of IC50: 1 to 10 µM for the first, 1 to 10 µM for the second.

COc1cc(CN2CCCC(c3cc(C)nc4ncnn34)C2)ccc1Cl (stereo not drawn) [Example 167, 1-[(4-Chloro-3-methoxyphenyl)methyl]-3-{5-methyl-[1,2,4]triazolo[1,5-a]pyrimidin-7-yl}piperidine] was tested, and the IC50 was 1 to 10 µM.

Same assay, conditions: IMAP TR-FRET, 200 nM FAM-cAMP substrate, 11-point half-log dose-response

For Cc1cc([C@H]2CCCN(Cc3ccc(Br)cc3)C2)n2ncnc2n1 [Example 134, (3S)-1-[(4-Bromophenyl)methyl]-3-{5-methyl-[1,2,4]triazolo[1,5-a]pyrimidin-7-yl}piperidine], the “PDE2 (pIC50)” value was greater than 7.
For Cc1cc(C2CCCN(Cc3ccc(Br)c(F)c3)C2)n2ncnc2n1 (stereo not drawn) [Example 139, 1-[(4-Bromo-3-fluorophenyl)methyl]-3-{5-methyl-[1,2,4]triazolo[1,5-a]pyrimidin-7-yl}piperidine], the “PDE2 (pIC50)” value was greater than 7.
With Cc1cc([C@H]2CCCN(Cc3ccc(Cl)c(F)c3)C2)n2ncnc2n1 [Example 141, (3S)-1-[(4-Chloro-3-fluorophenyl)methyl]-3-{5-methyl-[1,2,4]triazolo[1,5-a]pyrimidin-7-yl}piperidine] the “PDE2 (pIC50)” value was greater than 7.
For Cc1cc(C2CCCN(Cc3ccc(Br)c(Cl)c3)C2)n2ncnc2n1 (stereo not drawn) [Example 150, 1-[(4-Bromo-3-chlorophenyl)methyl]-3-{5-methyl-[1,2,4]triazolo[1,5-a]pyrimidin-7-yl}piperidine], the “PDE2 (pIC50)” value was greater than 7.
